# Measurements from PubChem BioAssay AID720700 (The Scripps Research Institute Molecular Screening Center, 2013).
# By UniProt entry, the sequences of proteins in these tests, tags left out.
# UniProt P19174, whole entry: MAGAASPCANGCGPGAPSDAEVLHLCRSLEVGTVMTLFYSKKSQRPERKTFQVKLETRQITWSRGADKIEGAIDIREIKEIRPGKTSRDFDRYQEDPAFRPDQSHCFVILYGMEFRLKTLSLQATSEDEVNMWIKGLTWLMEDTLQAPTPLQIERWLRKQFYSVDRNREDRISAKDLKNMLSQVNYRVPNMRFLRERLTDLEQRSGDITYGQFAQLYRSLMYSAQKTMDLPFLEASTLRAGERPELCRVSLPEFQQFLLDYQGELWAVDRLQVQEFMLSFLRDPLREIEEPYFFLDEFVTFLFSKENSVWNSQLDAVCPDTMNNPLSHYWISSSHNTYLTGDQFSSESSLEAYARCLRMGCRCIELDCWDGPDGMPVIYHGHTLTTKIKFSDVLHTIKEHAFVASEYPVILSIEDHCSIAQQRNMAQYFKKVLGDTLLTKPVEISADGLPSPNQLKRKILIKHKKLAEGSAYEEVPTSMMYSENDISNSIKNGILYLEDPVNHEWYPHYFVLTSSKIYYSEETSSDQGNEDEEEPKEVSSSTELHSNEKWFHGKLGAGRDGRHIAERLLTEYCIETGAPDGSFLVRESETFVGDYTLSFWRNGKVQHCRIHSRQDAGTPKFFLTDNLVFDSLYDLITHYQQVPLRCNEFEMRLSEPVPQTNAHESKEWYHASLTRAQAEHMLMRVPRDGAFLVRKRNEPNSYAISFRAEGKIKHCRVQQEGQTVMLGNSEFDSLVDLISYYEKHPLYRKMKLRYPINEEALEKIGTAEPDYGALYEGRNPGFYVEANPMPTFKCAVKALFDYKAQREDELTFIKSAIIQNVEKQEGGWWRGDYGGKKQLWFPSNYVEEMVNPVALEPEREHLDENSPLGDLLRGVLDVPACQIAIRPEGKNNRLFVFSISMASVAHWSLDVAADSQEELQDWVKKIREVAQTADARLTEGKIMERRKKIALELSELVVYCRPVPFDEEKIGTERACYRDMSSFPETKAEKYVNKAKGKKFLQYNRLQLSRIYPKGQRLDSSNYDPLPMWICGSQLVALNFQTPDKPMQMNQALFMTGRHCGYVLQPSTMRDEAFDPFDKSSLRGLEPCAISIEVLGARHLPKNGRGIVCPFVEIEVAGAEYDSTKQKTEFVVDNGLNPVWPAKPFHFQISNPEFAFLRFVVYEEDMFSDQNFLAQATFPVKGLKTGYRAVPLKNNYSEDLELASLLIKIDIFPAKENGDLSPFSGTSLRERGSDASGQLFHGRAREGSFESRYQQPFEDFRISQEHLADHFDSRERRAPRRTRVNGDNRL
# The entries are a selection whose mix differs from that of the whole data set. The source made the active and inactive calls. Cut-off read from the data, not from the text of the source: active = inhibition above about 9.5%; inactive = the rest.
# Molecular target: 1-phosphatidylinositol 4,5-bisphosphate phosphodiesterase gamma-1 (Homo sapiens) (UniProt P19174)
# Test: PLC-gamma1 enzyme inhibitors, primary screen, biochemical, fluorescence, purified enzyme (AID 720700)
# Conditions: purified PLC-gamma1, fluorogenic substrate, at 12.2 µM, hits give high values
row,Compound,inhibition
1,CC(C)(C)OC(=O)N1CCC(N(C(=O)c2ccccc2)c2ccc(Cl)cc2)CC1,inactive: 3.81%
2,N#Cc1ccc(C(=O)NCC2(N3CCCCC3)CCCCC2)cc1,inactive: 1.69%
3,CC(C)(C)n1nnnc1C(c1cccc2ccccc12)N1CCC(n2c(=O)[nH]c3ccccc32)CC1 (configuration not stated),inactive: -0.45%
4,c1ccc(CN2CCC(Nc3ccccc3)CC2)cc1,inactive: -1.23%
5,C/C(N)=N\P(=O)(Oc1ccccc1)Oc1ccccc1,inactive: 0.83%
6,Cc1cc(N(CCCl)CCCl)ccc1C=O,inactive: 3.6%
7,O=c1[nH]c2ccccc2n1C1CCN(C(c2ccccc2)c2nnnn2C2CCCC2)CC1 (configuration not stated),inactive: 1%
8,CCCN1CCC(Nc2cc(OC)cc(OC)c2)CC1,inactive: -2.99%
9,CN(C)C1(CNC(=O)c2cccc(C#N)c2)CCCCC1,inactive: 4.4%
10,COc1ccc(C(=O)NCC2(N3CCOCC3)CCCCC2)cc1OC,inactive: 1.89%
11,O=c1[nH]c2ccccc2n1C1CCN(C(c2ccnc3ccccc23)c2nnnn2C2CCCC2)CC1 (configuration not stated),inactive: 4.92%
12,O=c1[nH]c2ccccc2n1C1CCN(C(c2cccs2)c2nnnn2C2CCCCC2)CC1 (configuration not stated),inactive: 4.54%
13,NC(=O)C1(Nc2ccccc2)CCN(Cc2ccccc2)CC1,inactive: -1.16%
14,O=C(NCC1(N2CCOCC2)CCCCC1)c1cc(Br)ccc1Cl,inactive: 1.98%
15,CCCCn1nnnc1C(c1ccccc1)N1CCC(n2c(=O)[nH]c3ccccc32)CC1 (configuration not stated),inactive: -1.3%
16,COc1cc(C(=O)NCC2(N3CCOCC3)CCCCC2)cc(OC)c1C,inactive: 0.35%
17,CCCCn1nnnc1C(c1cccc(OC)c1OC)N1CCC(n2c(=O)[nH]c3ccccc32)CC1 (configuration not stated),inactive: 1.57%
18,O=C(OC1CN2CCC1CC2)C1c2ccccc2C=Cc2ccccc21 (configuration not stated),inactive: -1.3%
19,O=c1[nH]c2ccccc2n1C1CCN(C(c2cccs2)c2nnnn2C2CCCC2)CC1 (configuration not stated),inactive: 2.34%
20,N/C(=N\O)c1c(N)no[n+]1[O-],inactive: -2.36%
21,COc1cccc(C(c2nnnn2C(C)(C)C)N2CCC(n3c(=O)[nH]c4ccccc43)CC2)c1OC (configuration not stated),inactive: 0.29%

row,Compound,inhibition
1,CCOC(=O)N1CCC(Nc2ccc(C)cc2)CC1,inactive: -3.53%
2,CCCOc1ccc(C(=O)NCC2(N(C)C)CCCCC2)cc1,inactive: -0.49%
3,O=c1[nH]c2ccccc2n1C1CCN(C(c2cc3ccccc3o2)c2nnnn2C2CCCC2)CC1 (configuration not stated),inactive: 1.17%
4,CC(C)(C)OC(=O)N1CCC(Nc2ccccc2)CC1,inactive: -0.91%
5,NN(c1ccccc1)C1CCN(CCc2ccccc2)CC1,inactive: -0.9%
6,O=C(O)C1(Nc2ccccc2)CCN(Cc2ccccc2)CC1,inactive: -1.15%
7,CCOc1ncccc1C(=O)NCC1(N2CCOCC2)CCCCC1,inactive: -1.71%
8,CN1CCC(Nc2ccc(F)c(Cl)c2)CC1,inactive: 1.76%
9,CN1CCC(Nc2ccc(Cl)cc2)CC1,inactive: 1.38%
10,CCC(CO)(C(=O)OC1CN2CCC1CC2)c1ccccc1 (configuration not stated),inactive: 4.11%
11,COc1cccc(C(=O)N(c2cc(C)cc(C)c2)C2CCN(C(=O)OC(C)(C)C)CC2)c1,inactive: 0.22%
12,COc1cccc(C(c2nnnn2C2CCCC2)N2CCC(n3c(=O)[nH]c4ccccc43)CC2)c1OC (configuration not stated),inactive: 3.65%
13,COc1cc(OC)cc(C(=O)NCC2(N3CCOCC3)CCCCC2)c1,inactive: 1.14%
14,Cc1ccc(NC2(C#N)CCN(Cc3ccccc3)CC2)cc1,inactive: 6.04%
15,Cc1ccc(C(=O)NCC2(N3CCCCC3)CCCCC2)o1,inactive: -0.02%
16,Fc1ccccc1NC1CCN(Cc2ccccc2)CC1,inactive: 5.68%
17,O=c1[nH]c2ccccc2n1C1CCN(C(c2ccnc3ccccc23)c2nnnn2C2CCCCC2)CC1 (configuration not stated),inactive: 7.85%
18,COc1cc(OC)cc(C(=O)NCC2(N3CCCCC3)CCCCC2)c1,inactive: -0.07%
19,CC(=O)N(c1ccccc1)C1CCNCC1,inactive: -1.43%
20,COc1cccc(C(c2nnnn2C2CCCCC2)N2CCC(n3c(=O)[nH]c4ccccc43)CC2)c1OC (configuration not stated),inactive: 4.35%
21,CCC(c1nnnn1C1CCCCC1)N1CCC(n2c(=O)[nH]c3ccccc32)CC1 (configuration not stated),active: 9.91%

row,Compound,inhibition
1,O=C(NCC1(N2CCCCC2)CCCCC1)c1ccco1,inactive: -3.82%
2,Cn1c(=O)[nH]cc(N(CCCl)CCCl)c1=O,inactive: -1.28%
3,CN(C)c1ccc(C(=O)NCC2(N3CCCCC3)CCCCC2)cc1,inactive: -2.53%
4,Cc1ccccc1NC1(C#N)CCN(Cc2ccccc2)CC1,inactive: 0.32%
5,CC(C)(C)n1nnnc1C(c1ccnc2ccccc12)N1CCC(n2c(=O)[nH]c3ccccc32)CC1 (configuration not stated),inactive: -0.29%
6,CCN1CCC(Nc2cccc(F)c2)CC1,inactive: 4.73%
7,COc1ccc(C(c2nnnn2C2CCCCC2)N2CCC(n3c(=O)[nH]c4ccccc43)CC2)cc1 (configuration not stated),inactive: -0.5%
8,O=C(NCC1(N2CCCCC2)CCCCC1)c1ccc(F)cc1,inactive: 1.86%
9,CCCCOc1ccc(C(=O)NCC2(N3CCOCC3)CCCCC2)cc1,inactive: 4.18%
10,O=P1(N(CCCl)CCCl)SCCCS1,inactive: 3.08%
11,CCCCn1nnnc1C(c1cc2ccccc2o1)N1CCC(n2c(=O)[nH]c3ccccc32)CC1 (configuration not stated),inactive: 0.75%
12,CCOC(=O)N1CCC(Nc2ccc(F)cc2)CC1,inactive: 3.16%
13,COc1ccc(NC2CCN(CCc3ccccc3)CC2)c(OC)c1,inactive: -1.39%
14,CCOc1ccc(C)cc1CN(CCCl)CCCl,inactive: 3.12%
15,CC(C)(C)n1nnnc1C(c1ccccc1)N1CCC(n2c(=O)[nH]c3ccccc32)CC1 (configuration not stated),inactive: 3.26%
16,O=C1CCN(Cc2ccccc2)CC1,inactive: -2.27%
17,O=c1[nH]c2ccccc2n1C1CCN(C(c2cccc3ccccc23)c2nnnn2C2CCCC2)CC1 (configuration not stated),inactive: -1.06%
18,COc1cc(C(=O)NCC2(N(C)C)CCCCC2)ccc1OC(F)F,inactive: 0.12%
19,CCOC(=O)N1CCC(Nc2cccc(C)c2)CC1,inactive: 0.86%
20,O=c1[nH]c2ccccc2n1C1CCN(C(c2ccccc2)c2nnnn2C2CCCCC2)CC1 (configuration not stated),inactive: -1.19%
